## Antibody variant affinities, Ab-14 light chain, assay 1

Antigen: PDVDLGDISGINAS, a 14-residue peptide of the SARS-CoV-2 spike HR2 region.

Parent: Ab-14, a human scFv built as VH, a 15-residue (Gly4Ser)3 linker, VL. Only the CDRs of the light chain vary.
VH: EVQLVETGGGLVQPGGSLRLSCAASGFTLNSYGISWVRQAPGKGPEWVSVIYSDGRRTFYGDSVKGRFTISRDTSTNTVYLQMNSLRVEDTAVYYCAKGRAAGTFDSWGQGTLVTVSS
VL: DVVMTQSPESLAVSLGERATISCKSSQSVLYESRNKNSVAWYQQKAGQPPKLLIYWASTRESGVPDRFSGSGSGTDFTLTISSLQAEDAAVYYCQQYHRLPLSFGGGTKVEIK

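Phage display of a naive human antibody library on the peptide gave the parent. AAYL50 was designed without a model: most single CDR substitutions and a random sample of double and triple ones. AlphaSeq pools MATa yeast showing the antibodies with MATalpha yeast showing the peptide. Binding brings cells together so that they mate, and sequencing counts the barcode pairs among the diploids. Scores were corrected for input abundance and mapped to Kd with protein pairs of known affinity run in the same pool. Mating was done three times.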

Sequences are complete VL domains. Affinities are written as log10 Kd with Kd in nM; a lower number is a better binder. Replicates are averaged; those with no signal do not enter the mean. A pair that was not seen in that replicate is written "n.d."; this usually means weak binding, but a binder can also be missed.

| # | VL | replicates, log10 nM | mean log10 Kd (nM) | signal with controls |
|---|---|---|---|---|
| 1 | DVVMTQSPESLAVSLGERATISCKSSQSVLYISRQKNSVAWYQQKAGQPPKLLIYWASTRESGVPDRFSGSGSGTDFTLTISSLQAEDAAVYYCQQYCRLPLSFGGGTKVEIK | n.d. 4.39 n.d. | 4.39 | 3/9 (3.37) |
| 2 | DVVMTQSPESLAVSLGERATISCKSSQSVLYESRNMNSVAWYQQKAGQPPKLLIYWASTRYSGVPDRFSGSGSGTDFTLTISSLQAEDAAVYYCQQYHRLPLPFGGGTKVEIK | n.d. n.d. n.d. | n.d. | 0/9 |
| 3 | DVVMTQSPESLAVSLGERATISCKGSQVILYESRNKNSVAWYQQKAGQPPKLLIYWASTRESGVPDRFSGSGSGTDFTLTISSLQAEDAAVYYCQQYHRLPLSFGGGTKVEIK | 1.31 1.92 1.43 | 1.55 | 0/9 |
| 4 | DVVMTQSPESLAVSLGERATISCKSSQSVLYESRNQNSVAWYQQKAGQPPKLLIYWASTREQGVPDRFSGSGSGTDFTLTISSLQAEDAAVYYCQQYHRLPLSFGGGTKVEIK | 0.09 0.45 0.28 | 0.27 | 4/9 (4.20) |
| 5 | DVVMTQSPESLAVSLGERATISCWSSQSVLYESRNKNSVAWYQQKAGQPPKLLIYWASTRESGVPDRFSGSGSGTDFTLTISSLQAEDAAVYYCMQYRRLPLSFGGGTKVEIK | 1.88 0.80 1.47 | 1.38 | 0/9 |
| 6 | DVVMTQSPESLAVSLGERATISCKSSQSVLYESRNKNSVAWYQQKAGQPPKLLIYWASTRGSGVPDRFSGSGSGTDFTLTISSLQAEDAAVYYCQQYHRLPLSFGGGTKVEIK | 1.48 1.52 1.60 | 1.54 | 2/9 (4.09) |
| 7 | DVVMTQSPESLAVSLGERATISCKSSFSVLYESRNKNSAAWYQQKAGQPPKLLIYWASTRESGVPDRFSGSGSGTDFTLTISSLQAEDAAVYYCQQYHRLPCSFGGGTKVEIK | n.d. 3.09 n.d. | 3.09 | 1/9 (3.52) |
| 8 | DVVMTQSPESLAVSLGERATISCKGSQSVLYESRNKNSVAWYQQKAGQPPKLLIYWDSWRESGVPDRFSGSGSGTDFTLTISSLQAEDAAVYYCQQYHRLPLSFGGGTKVEIK | 3.68 n.d. n.d. | 3.68 | 4/9 (4.59) |
| 9 | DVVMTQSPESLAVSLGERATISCKSSQWVLYESRNKNSVPWYQQKAGQPPKLLIYWASTRESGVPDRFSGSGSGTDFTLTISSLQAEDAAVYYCQQGHRLPLSFGGGTKVEIK | n.d. 3.88 4.14 | 4.01 | 4/9 (3.97) |
| 10 | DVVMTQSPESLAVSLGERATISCKSSQSVLYESRNKNSVAWYQQKAGQPPKLLIYWASTRLSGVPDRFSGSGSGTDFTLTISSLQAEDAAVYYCEFYHRLPLSFGGGTKVEIK | 1.97 1.97 2.38 | 2.10 | 4/9 (4.76) |
| 11 | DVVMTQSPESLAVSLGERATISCKSSQSVLYESRNKNSVLWYQQKAGQPPKLLIYDASTRESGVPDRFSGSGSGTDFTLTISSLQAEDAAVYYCQPYHRLPLSFGGGTKVEIK | n.d. n.d. n.d. | n.d. | 0/9 |
| 12 | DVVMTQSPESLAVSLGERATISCKSSRSVLYEIRNKNSYAWYQQKAGQPPKLLIYWASTRESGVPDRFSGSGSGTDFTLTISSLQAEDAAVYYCQQYHRLPLSFGGGTKVEIK | 3.75 n.d. n.d. | 3.75 | 2/9 (3.73) |
| 13 | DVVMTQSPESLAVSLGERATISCKSSQSWLYESWNHNSVAWYQQKAGQPPKLLIYWASTRESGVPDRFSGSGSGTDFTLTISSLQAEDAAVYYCQQYHRLPLSFGGGTKVEIK | 1.70 1.61 1.96 | 1.76 | 0/9 |
| 14 | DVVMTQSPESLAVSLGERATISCKSSQAVLYEIRWKNSVAWYQQKAGQPPKLLIYWASTRESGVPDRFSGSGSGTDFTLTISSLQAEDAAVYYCQQYHRLPLSFGGGTKVEIK | n.d. n.d. n.d. | n.d. | 0/9 |
| 15 | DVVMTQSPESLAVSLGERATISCKSSQSVLYESRNKNSVAWYQQKAGQPPKLLIYWASTRKSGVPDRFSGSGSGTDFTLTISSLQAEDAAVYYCQQYIRLPLSFGGGTKVEIK | 3.22 4.25 n.d. | 3.74 | 2/9 (3.45) |
| 16 | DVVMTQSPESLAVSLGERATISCKSMQSVLYESRSKNSVTWYQQKAGQPPKLLIYWASTRESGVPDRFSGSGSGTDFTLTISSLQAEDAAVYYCQQYHRLPLSFGGGTKVEIK | n.d. n.d. n.d. | n.d. | 1/9 (3.11) |
| 17 | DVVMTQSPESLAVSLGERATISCKSSQSVLYEKRNKNSVAWYQQKAGQPPKLLIYWASTRESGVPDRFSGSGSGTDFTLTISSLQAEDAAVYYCQQWHRLPLWFGGGTKVEIK | 4.73 3.32 n.d. | 4.03 | 1/9 (4.33) |

For reference, 3 entries of the list once more:

VL	replicates, log10 nM	mean log10 Kd (nM)	signal with controls
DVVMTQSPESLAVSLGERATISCKSSQSVLYESRNKNSVAWYQQKAGQPPKLLIYWASTRKSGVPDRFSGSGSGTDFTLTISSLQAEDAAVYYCQQYIRLPLSFGGGTKVEIK	3.22 4.25 n.d.	3.74	2/9 (3.45)
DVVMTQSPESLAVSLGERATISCKSSQSVLYESRNQNSVAWYQQKAGQPPKLLIYWASTREQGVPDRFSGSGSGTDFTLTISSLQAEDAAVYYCQQYHRLPLSFGGGTKVEIK	0.09 0.45 0.28	0.27	4/9 (4.20)
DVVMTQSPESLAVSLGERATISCKSSQSVLYESRNKNSVAWYQQKAGQPPKLLIYWASTRGSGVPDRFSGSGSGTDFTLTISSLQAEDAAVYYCQQYHRLPLSFGGGTKVEIK	1.48 1.52 1.60	1.54	2/9 (4.09)

As a blank, each scFv also met three strains without target: over library AAYL50, 18% of these pairings were detected, typically at 4.19 and seldom below 2.99. Also given: how often the same scFv was detected with the empty control strains, with their mean in brackets.

From the AlphaSeq antibody data of Engelhart et al. 2022 (doi:10.1038/s41597-022-01779-4), copy in the FLAb collection.